Test system: primary human GBM cells (GBM6, GBM12)
Experiment: Cell death by trypan blue exclusion in primary human GBM cells
Assay type: cell-based
Details: GBM6, GBM12 infected with Ad.5-mda-7 moi 10; Na Valproate 0.3-1.0 mM, SBHA 0.3-5.0 μM; 48 h; dose-dependent
Description: FIG. 18A-C. […] (A) GBM6 cells, (B) GBM12 cells and (C) primary human astrocytes were infected with empty vector or recombinant serotype 5 adenovirus to express MDA-7/IL-24; at a multiplicity of infection (moi) of 10. After infection (24 h) cells were treated with vehicle control or with pharmacologically achievable concentrations of HDACIs, Na Valproate (0, 0.3, 0.5, 1.0 mM) or the vorinostat analogue SBHA (0, 0.3, 1.0, 3.0, 5.0 µM). Cells were isolated 48 h later and viability determined by trypan blue exclusion (n=3, +/−SEM) (*p<0.05 greater than corresponding value in Ad.5-cmv infected cells).
FIGS. 23A and B. SBHA enhances MDA-7/IL-24 toxicity through the extrinsic pathway. […] Cells were isolated 48 h later and viability determined by trypan blue exclusion (n=3, +/−SEM). […] Cells were isolated 24 h later and viability determined by trypan blue exclusion (n=3, +/−SEM) (*p<0.05 greater than corresponding Ad.5-cmv values). […]
Detection of Cell Death by Trypan Blue Assays. […] Trypan blue stain, in which blue dye incorporating cells were scored as being dead, was performed by counting of cells using a light microscope and a hemacytometer. Five hundred cells from randomly chosen fields were counted and the number of dead cells was counted and expressed as a percentage of the total number of cells counted.

CCCC(CCC)C(=O)[O-].[Na+] [sodium valproate]
effect on lethality of MDA-7/IL-24: enhanced the lethality of MDA-7/IL-24

Reference: US10314870B2, “Tropism modified cancer terminator virus (Ad.5/3 CTV;AD.5/3-CTV-M7)” (priority 2012, dated 2019)
